Data on four compounds can be found in US9115083B2 (Simpson Biotech Co., Ltd, priority 2011, dated 2015).

Chains of the proteins cited; added tags and fusions are not shown.
UniProt P27487, whole entry: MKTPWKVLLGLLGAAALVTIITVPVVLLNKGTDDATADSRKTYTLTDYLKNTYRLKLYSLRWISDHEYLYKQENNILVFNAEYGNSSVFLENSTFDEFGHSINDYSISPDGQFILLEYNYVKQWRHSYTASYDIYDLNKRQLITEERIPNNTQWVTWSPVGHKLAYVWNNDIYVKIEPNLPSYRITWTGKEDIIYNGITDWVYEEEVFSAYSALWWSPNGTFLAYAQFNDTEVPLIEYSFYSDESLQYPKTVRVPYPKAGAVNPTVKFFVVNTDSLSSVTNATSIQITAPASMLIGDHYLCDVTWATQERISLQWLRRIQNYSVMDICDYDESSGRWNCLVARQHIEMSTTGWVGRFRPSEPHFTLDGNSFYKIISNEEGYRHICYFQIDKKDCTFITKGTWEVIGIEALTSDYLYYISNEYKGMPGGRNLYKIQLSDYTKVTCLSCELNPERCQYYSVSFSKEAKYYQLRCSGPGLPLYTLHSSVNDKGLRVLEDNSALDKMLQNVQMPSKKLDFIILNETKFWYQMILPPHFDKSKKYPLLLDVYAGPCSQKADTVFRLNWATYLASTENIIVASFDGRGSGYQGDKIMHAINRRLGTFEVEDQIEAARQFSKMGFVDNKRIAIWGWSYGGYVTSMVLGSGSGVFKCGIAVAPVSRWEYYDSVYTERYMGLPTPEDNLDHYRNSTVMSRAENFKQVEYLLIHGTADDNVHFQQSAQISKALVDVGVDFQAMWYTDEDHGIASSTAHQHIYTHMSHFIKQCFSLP

In brackets after ≈: the same amount, converted by molar mass. Several values for one entry are separate records, joined by “and”; a condition that tells them apart may be missing. Equal values may be shown once.

The target in the assay is dipeptidyl peptidase-IV (DPPIV) (Homo sapiens (Human), UniProt P27487). Put plainly: dipeptidyl peptidase-IV (DPPIV) assay. The note with it: Table 10, first scaffold. In kind it is biochemical. From the text: In addition, the dipeptidyl peptidase-IV (DPPIV) assay herein was applied to investigate the DPPIV inhibitory activity of the prepared compounds as described above. The method of the DPPIV assay was described in Lin et al., 1998. Inhibition of dipeptidyl peptidase IV by fluoroolefin-containing N-peptidyl-O-hydroxylamine peptidomimetics. Proc. Natl. Acad. Sci. USA Vol. 95, pp. 14020-14024.
For the compound `CC(C)=CCOc1ccc(C2=C(CC(C)C)C(=O)N(C(CO)C(=O)N3CCC[C@H]3C(=O)OC(C)(C)C)C2=O)cc1` (stereo partly shown), the “IC50 against DPPIV” value amounted to 55 µg/mL (≈ 99.2 µM).
As to `COC(=O)[C@@H]1CCCN1C(=O)C(Cc1ccccc1)N1C(=O)C(CC(C)C)=C(c2ccc(OCC=C(C)C)cc2)C1=O` (stereo partly shown), the “IC50 against DPPIV” value is 89.0 µg/mL and 70 µg/mL.
The result for `CC(C)=CCOc1ccc(C2=C(CC(C)C)C(=O)N(C(CC(C)C)C(=O)N3CCC[C@H]3C(=O)OC(C)(C)C)C2=O)cc1` (stereo partly shown) reads 60 µg/mL (≈ 103 µM); that for `CC(C)=CCOc1ccc(C2=C(CC(C)C)C(=O)N(C(Cc3ccccc3)C(=O)N3CCC[C@H]3C(=O)OC(C)(C)C)C2=O)cc1` (stereo partly shown), 84 µg/mL (≈ 137 µM).
